Test results from patent US20090054504A1 (KNOPP NEUROSCIENCES, INC., priority 2007, published 2009).

Experiments:
clinical [1] = settings: human, oral, t½, Fasted, mean ± SD
clinical [2] = settings: human, oral

## CCCN[C@@H]1CCc2nc(N)sc2C1 [RPPX, (6R)-4,5,6,7-tetrahydro-N6-propyl-2,6-benzothiazole-diamine]
Clinical [1]; blood, 50 mg, CL002, 50 mg Q12H (Day 1)
  half-life: 6.34 ± 1.31 h
Clinical [1]; blood, 50 mg, CL002, 50 mg Q12H (Day 7)
  half-life: 6.96 ± 1.3 h
Clinical [1]; blood, 100 mg, CL002, 100 mg Q12H (Day 1)
  half-life: 6.57 ± 0.88 h
Clinical [1]; in vivo, 100 mg, CL002, 100 mg Q12H (Day 7)
  half-life: 7.88 ± 1.19 h
Clinical [2]; blood, 150 mg
  half-life: 6.96 ± 0.56 h
Clinical [2]; blood, 300 mg
  half-life: 6.4 ± 1.73 h
Clinical [2]; in vivo, 50 mg
  half-life: 6.65 ± 1.07 h
